Test results taken from EP4563573A1, “COMPOUND, AND PREPARATION METHOD THEREFOR AND USE THEREOF IN PREPARATION OF SEH INHIBITOR AND PPARS AGONIST” (Shenyang Pharmaceutical University, priority 2023, dated 2024).

Protein sequences, listed by entry. Tags and fused reporters are not part of them. Residues count along the entry.
UniProt P37231, 204-505 limits assumed: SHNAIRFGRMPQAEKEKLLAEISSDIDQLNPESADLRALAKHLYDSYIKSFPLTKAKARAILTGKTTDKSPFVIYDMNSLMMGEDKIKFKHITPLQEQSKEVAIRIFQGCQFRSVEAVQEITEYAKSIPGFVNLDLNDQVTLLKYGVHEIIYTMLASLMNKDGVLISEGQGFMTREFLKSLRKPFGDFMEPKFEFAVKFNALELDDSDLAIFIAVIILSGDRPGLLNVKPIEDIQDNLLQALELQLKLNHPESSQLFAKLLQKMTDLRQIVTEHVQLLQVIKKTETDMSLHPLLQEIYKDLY
UniProt P34914, whole entry: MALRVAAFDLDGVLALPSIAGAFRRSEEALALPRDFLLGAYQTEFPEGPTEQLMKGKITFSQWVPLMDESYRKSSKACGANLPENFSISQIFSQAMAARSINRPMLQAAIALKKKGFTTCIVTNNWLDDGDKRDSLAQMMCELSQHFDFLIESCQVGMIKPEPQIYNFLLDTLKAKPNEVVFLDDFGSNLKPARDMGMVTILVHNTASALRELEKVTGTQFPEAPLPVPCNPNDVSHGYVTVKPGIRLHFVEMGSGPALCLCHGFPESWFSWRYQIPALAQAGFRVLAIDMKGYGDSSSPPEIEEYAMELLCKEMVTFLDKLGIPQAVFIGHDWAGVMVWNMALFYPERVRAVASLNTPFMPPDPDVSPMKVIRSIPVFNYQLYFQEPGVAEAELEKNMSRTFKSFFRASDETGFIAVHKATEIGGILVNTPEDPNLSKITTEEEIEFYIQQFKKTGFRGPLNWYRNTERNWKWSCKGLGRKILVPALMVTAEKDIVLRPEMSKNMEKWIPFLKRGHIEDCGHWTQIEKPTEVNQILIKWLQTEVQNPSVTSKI
UniProt P34913, whole entry: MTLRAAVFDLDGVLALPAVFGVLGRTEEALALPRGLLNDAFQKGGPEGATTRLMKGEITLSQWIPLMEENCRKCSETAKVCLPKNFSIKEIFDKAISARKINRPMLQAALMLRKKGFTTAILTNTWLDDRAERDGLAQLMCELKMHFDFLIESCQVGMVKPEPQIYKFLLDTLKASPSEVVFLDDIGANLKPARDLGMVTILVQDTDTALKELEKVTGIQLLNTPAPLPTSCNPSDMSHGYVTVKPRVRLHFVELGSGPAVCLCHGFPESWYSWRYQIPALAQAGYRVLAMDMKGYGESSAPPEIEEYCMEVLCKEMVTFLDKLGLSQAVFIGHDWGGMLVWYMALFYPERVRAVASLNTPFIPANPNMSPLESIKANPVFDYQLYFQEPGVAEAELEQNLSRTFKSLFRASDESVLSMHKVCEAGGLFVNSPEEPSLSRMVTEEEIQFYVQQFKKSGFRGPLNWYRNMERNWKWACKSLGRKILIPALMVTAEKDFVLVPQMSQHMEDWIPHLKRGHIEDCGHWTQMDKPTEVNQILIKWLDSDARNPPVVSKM

Key:
PPARγ = PPARγ (Homo sapiens, UniProt P37231); assay: PPARγ agonist activity test (luciferase reporter gene); type: cell-based; details: relative to Rosiglitazone; tested form: free
murine sEH (MsEH) = murine sEH (MsEH) (Mus musculus, UniProt P34914); details: tested form: free
[1] = molecular target: recombinant human sEH (HsEH) (Homo sapiens, UniProt P34913); details: read-out: HsEH IC50, PHOME substrate, tested form: free

With O=C(O)CC(=O)Nc1ccc(O[C@H]2CC[C@H](NC(=O)Nc3ccc(OC(F)(F)F)c(F)c3)CC2)cc1 the “PPARγ (compared with Rosiglitazone, %)” value (PPARγ) was 0.6%, the IC50 (murine sEH (MsEH)) was 1.4 nM and the IC50 [1] was 0.6 nM.
